# Measured affinities in a library of Ab-14 light chain variants

From the AlphaSeq antibody data of Li et al. 2023 (doi:10.1038/s41467-023-39022-2), copy in the FLAb collection.

Antigen: PDVDLGDISGINAS, a 14-residue peptide of the SARS-CoV-2 spike HR2 region.

Parent scFv Ab-14: VH joined to VL by a (GGGGS)3 linker. Changes lie in the light chain CDRs alone.
VH: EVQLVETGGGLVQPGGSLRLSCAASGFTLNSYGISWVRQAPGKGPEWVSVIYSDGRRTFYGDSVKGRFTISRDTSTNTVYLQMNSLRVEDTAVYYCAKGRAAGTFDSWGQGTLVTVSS
VL: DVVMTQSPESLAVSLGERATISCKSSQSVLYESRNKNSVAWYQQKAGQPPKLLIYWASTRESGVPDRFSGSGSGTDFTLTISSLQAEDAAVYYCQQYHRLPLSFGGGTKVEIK

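The starting antibody came from a phage panning campaign against this peptide. The variants were designed computationally from a first round of random CDR variants and then made and measured. Their group label is 14L_GP_HC (GP: Gaussian process model; HC: hill climbing; a sequence that several methods proposed may carry one label only). The scFvs were displayed on barcoded MATa yeast, the peptide on MATalpha yeast. Mating (16 h, 30 °C) was followed by selection of diploids and sequencing of their barcodes. Scores were corrected for input abundance and mapped to Kd with protein pairs of known affinity run in the same pool. Mating was done six times.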

The parent's light chain CDRs are KSSQSVLYESRNKNSVA, WASTRES, QQYHRLPLS; each variant's own CDRs replace them letter for letter.
Affinities are written as log10 Kd with Kd in nM; a lower number is a better binder.
A pair that was not seen in that replicate is written "ND"; this usually means weak binding, but a binder can also be missed.
The range of this assay differs from that of the first round, and the authors advise against merging the two.
The authors averaged sequences with at least three values out of six and counted those with two or fewer as poor binders.
Three control strains display no target. For all light chain designs, 4% of the pairings with them gave a signal, with a median of 2.64 and one signal in twenty below 1.59, so weak values seen in few replicates may be background. For each scFv, signals with the empty controls are counted beside the result, with their mean in brackets.

{"CDR-L1": "KSLWSVLYESVNKNSVA", "CDR-L2": "HASTRED", "CDR-L3": "QQYHRLPLS", "replicates, log10 nM": "0.69 0.58 0.72 0.37 0.27 0.78", "empty controls": "1/18 (2.04)"}
{"CDR-L1": "KFSQSVLYESRVSNRVA", "CDR-L2": "NASTRES", "CDR-L3": "QQYHRLPLS", "replicates, log10 nM": "1.32 0.99 1.35 0.87 0.89 1.00", "empty controls": "2/18 (3.57)"}
{"CDR-L1": "KSSPSTLYESRNKNSVA", "CDR-L2": "NASTRES", "CDR-L3": "QQYHRLPLS", "replicates, log10 nM": "ND ND ND ND ND ND", "empty controls": "0/18"}
{"CDR-L1": "KFSQWVLYESRTQNSVA", "CDR-L2": "NASTRES", "CDR-L3": "QQYHRLPLS", "replicates, log10 nM": "0.20 0.02 0.02 0.00 -0.04 0.38", "empty controls": "0/18"}
{"CDR-L1": "KQLQSVLYESRNKNSVA", "CDR-L2": "HASTRED", "CDR-L3": "QQYGRLPLS", "replicates, log10 nM": "0.67 0.74 0.71 0.77 0.51 0.67", "empty controls": "0/18"}
{"CDR-L1": "KSPQVYLYESRNKNSVA", "CDR-L2": "GASTRES", "CDR-L3": "QQYHRLPLS", "replicates, log10 nM": "0.00 -0.16 -0.17 -0.26 -0.07 -0.05", "empty controls": "3/18 (2.86)"}
{"CDR-L1": "KSSISHLYESRNKNSVA", "CDR-L2": "EASTRES", "CDR-L3": "QQYHRLPLM", "replicates, log10 nM": "0.22 0.27 0.08 -0.56 -0.65 0.01", "empty controls": "0/18"}
{"CDR-L1": "KLSQSDLYESRTKNSVA", "CDR-L2": "NASTRES", "CDR-L3": "QQYHRLPLS", "replicates, log10 nM": "-0.30 -0.49 -0.28 -0.53 -0.34 -0.21", "empty controls": "2/18 (3.18)"}
{"CDR-L1": "KSSISYLEESRNKNSVA", "CDR-L2": "NASTRES", "CDR-L3": "QQYHRLPLS", "replicates, log10 nM": "-0.22 -0.50 -0.47 -0.45 -0.52 -0.34", "empty controls": "0/18"}
{"CDR-L1": "KVSFSVLLESRNKNSVA", "CDR-L2": "EASTRES", "CDR-L3": "QQYHRLPLS", "replicates, log10 nM": "ND 0.36 0.59 0.88 1.16 1.96", "empty controls": "0/18"}
{"CDR-L1": "HSSPSVAYESRNKNSVA", "CDR-L2": "NASTRMS", "CDR-L3": "QQYHRLPLS", "replicates, log10 nM": "0.14 0.18 0.41 0.05 0.32 0.51", "empty controls": "0/18"}
{"CDR-L1": "LSSISELYESPNKNSVA", "CDR-L2": "EASTRES", "CDR-L3": "QQYHRLPLS", "replicates, log10 nM": "0.26 0.74 0.57 0.28 0.59 0.39", "empty controls": "1/18 (2.29)"}
{"CDR-L1": "KSSQSVLNESRNKNSVA", "CDR-L2": "DASTRES", "CDR-L3": "QTYHRLPLS", "replicates, log10 nM": "0.19 0.28 0.15 0.24 0.31 0.60", "empty controls": "1/18 (3.16)"}
{"CDR-L1": "KLSWSVLFESRNKNSVA", "CDR-L2": "DASTRSS", "CDR-L3": "QQYHRLPLS", "replicates, log10 nM": "-0.17 -0.10 -0.36 -0.42 -0.24 -0.10", "empty controls": "1/18 (2.10)"}
{"CDR-L1": "KYSISYLEGSRNKNSVA", "CDR-L2": "EASTRES", "CDR-L3": "QQYHRLPLS", "replicates, log10 nM": "0.51 0.53 0.41 0.25 0.36 0.86", "empty controls": "1/18 (2.47)"}
{"CDR-L1": "KSSQAFLYESRNKNSVA", "CDR-L2": "DANTRES", "CDR-L3": "QQYHRLPLS", "replicates, log10 nM": "-0.32 -0.35 -0.36 -0.44 -0.38 -0.19", "empty controls": "1/18 (2.64)"}
{"CDR-L1": "KSSISFLYESRNKNSVA", "CDR-L2": "EASTRES", "CDR-L3": "QQYHRLPLS", "replicates, log10 nM": "0.25 0.76 0.25 0.21 0.30 0.55", "empty controls": "0/18"}
{"CDR-L1": "KFSQWVLYESRCKNSVA", "CDR-L2": "NASTRES", "CDR-L3": "QQYHRLPLS", "replicates, log10 nM": "1.75 2.96 1.37 1.09 2.36 2.22", "empty controls": "0/18"}
{"CDR-L1": "KLRQSTLYESRNPNSVA", "CDR-L2": "YASTRES", "CDR-L3": "QQYHRLPLS", "replicates, log10 nM": "0.23 0.48 0.45 0.16 0.10 0.66", "empty controls": "1/18 (4.25)"}
{"CDR-L1": "KQSQSVLYESRNKNAVA", "CDR-L2": "DASTRES", "CDR-L3": "QWYHWLPLS", "replicates, log10 nM": "1.52 1.19 1.24 1.83 1.21 1.20", "empty controls": "1/18 (2.18)"}
{"CDR-L1": "KSSISGLYESRMKNSVA", "CDR-L2": "EASTREL", "CDR-L3": "QQYHRLPLS", "replicates, log10 nM": "0.57 0.81 0.73 0.66 0.75 1.00", "empty controls": "4/18 (2.22)"}
{"CDR-L1": "KFSPSVLYESRTKNSVA", "CDR-L2": "EASTRES", "CDR-L3": "QQYHRLPLS", "replicates, log10 nM": "-0.08 -0.20 -0.26 -0.48 -0.30 0.09", "empty controls": "0/18"}
{"CDR-L1": "KSLQSWLYESRNKNSVA", "CDR-L2": "QASTREQ", "CDR-L3": "QQYHRLPLS", "replicates, log10 nM": "0.57 0.60 0.54 0.44 0.54 0.81", "empty controls": "2/18 (2.83)"}
{"CDR-L1": "KSSESFLYESRNKNSVA", "CDR-L2": "GASTRES", "CDR-L3": "QQYHRLTLS", "replicates, log10 nM": "-0.12 -0.06 0.52 0.03 -0.08 0.01", "empty controls": "0/18"}
{"CDR-L1": "KFSQWDLYESRTKNSVA", "CDR-L2": "NASTRES", "CDR-L3": "QQYHRLPLS", "replicates, log10 nM": "0.12 0.08 0.11 -0.32 -0.05 0.20", "empty controls": "0/18"}

The last 4 entries again:

{"CDR-L1": "KFSPSVLYESRTKNSVA", "CDR-L2": "EASTRES", "CDR-L3": "QQYHRLPLS", "replicates, log10 nM": "-0.08 -0.20 -0.26 -0.48 -0.30 0.09", "empty controls": "0/18"}
{"CDR-L1": "KSLQSWLYESRNKNSVA", "CDR-L2": "QASTREQ", "CDR-L3": "QQYHRLPLS", "replicates, log10 nM": "0.57 0.60 0.54 0.44 0.54 0.81", "empty controls": "2/18 (2.83)"}
{"CDR-L1": "KSSESFLYESRNKNSVA", "CDR-L2": "GASTRES", "CDR-L3": "QQYHRLTLS", "replicates, log10 nM": "-0.12 -0.06 0.52 0.03 -0.08 0.01", "empty controls": "0/18"}
{"CDR-L1": "KFSQWDLYESRTKNSVA", "CDR-L2": "NASTRES", "CDR-L3": "QQYHRLPLS", "replicates, log10 nM": "0.12 0.08 0.11 -0.32 -0.05 0.20", "empty controls": "0/18"}